# Measured values: PubChem BioAssay AID485395 (ICCB-Longwood Screening Facility, Harvard Medical School, 2010)
# The list shows a part of the results, in another mix than the full data. Some tests of the compounds listed are not included; inactive here does not mean inactive elsewhere. Active and inactive are the calls of the source. No stated cut-off is given here; in the data, active means inhibition above about 25% (passing the limit was not always enough); inactive means the rest.
# Test system: replicative DNA helicase (DnaC/DnaB), Staphylococcus aureus
# Test: S. aureus DnaC helicase unwinding inhibition – biochemical, fluorescence unwinding readout, primary screen (AID 485395);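 further: 0% = mean of negative control wells and 100% = mean of positive control wells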
# Details: purified S. aureus helicase, fluorescence unwinding assay; hits give high values; concentration not given here
row,Structure (SMILES),inhibition
1,COc1ccc(OC)c(C=C(C#N)C#N)c1,inactive: -112%
2,CN(C)c1ccc(C(=O)NCC2(N(C)C)CCCCC2)cc1,inactive: 7%
3,O=C(NCC1(N2CCOCC2)CCCCC1)c1cnc(Cl)c(Cl)c1,inactive: 6%
4,O=C(NCC1(N2CCCCC2)CCCCC1)c1ccc2c(c1)OCCO2,inactive: 7%
5,CN1C2CCC1CC(OC(=O)C(O)(c1ccccc1)c1ccccc1)C2 (stereo not drawn),inactive: -1%
6,O=C(OC1CN2CCC1CC2)C(CO)(c1ccccc1)c1ccccc1 (stereo not drawn),inactive: 7%
7,CN(C)C1(CNC(=O)c2ccncc2)CCCCC1,inactive: 9%
8,N#CC(C#N)=Cc1ccccc1,inactive: 8%
